# Laboratory results: article PMC10459838 (Veterinary Sciences, 2023)
# What was measured:
# [1] = tested on: FIPV serotype II strain (WSU-79-1146); assay: Antiviral efficacy against FIPV replication in CRFK cells, viral load by qRT-PCR; type: cell-based, feline infectious peritonitis virus
# [2] = tested on: CRFK cells; assay: Cell viability assay (MTT, Cell Proliferation Kit I); type: cell-based, feline; conditions: 48 h, MTT staining
# Procedure: The Crandell-Reese feline kidney (CRFK) cells utilized in this study were purchased from American Type Culture Collection (ATCC, Manassas, VA, USA), and cultured in Eagle’s Minimum Essential Medium (EMEM) medium supplemented with 10% fetal bovine serum (FBS), 1% antibiotics (penicillin and streptomycin), and 1% non-essential amino acids. The reagents were obtained from ATCC. The CRFK cells were incubated at 37 °C with 5% CO2.
# The cell viability of CRFK cells was measured using a Cell Proliferation Kit I (MTT) (Roche Applied Science, Indianapolis, IN, USA), following the manufacturer’s instructions. […] After incubation for 48 h, 10 μL of MTT solution (0.5 mg/mL in phosphate-buffered saline) was added to each well. The plate was incubated for 4 h at 37 °C to allow the formation of formazan crystals. Following incubation, 1% sodium dodecyl sulfate (100 μL) solution was added to dissolve the crystals.
# [3] = tested on: CRFK cells; conditions: 48 h, CellTox Green
structure (smiles),measurement,setting,value
N#CC[C@H](C1CCCC1)n1cc(-c2ncnc3[nH]ccc23)cn1 [Ruxolitinib],Selectivity index (SI) = (mean CC50)/(mean EC50),[1],7.8
same,Concentration as high as which the drug could be used safely with minimal cytotoxicity,[2],250 µM
same,Highest concentration with essentially no cytotoxicity,[3],250 µM
